Measurements: patent US20060160798A1, “Viral polymerase inhibitors” (Boehringer Ingelheim (Canada) Ltd., priority 2001, published 2006)

biological target: hepatitis C virus RNA dependant polymerase (NS5B) (Hepatitis C virus genotype 1b, UniProt P26663); test: biochemical; conditions: IC50, HCV NS5B polymerase, 10 nM enzyme, 1.5 hours at room temperature

Compound	IC50
CN1CCC(NC(=O)c2ccc3c(C4CCCCC4)c(-c4ccoc4)[nH]c3c2)(C(=O)Nc2ccc(/C=C/C(=O)O)cc2)CC1 [Entry 2052]	< 500 nM
CC(C)(NC(=O)c1ccc2c(C3CCCCC3)c(-c3ccoc3)[nH]c2c1)C(=O)Nc1ccc(-c2ccc(C(=O)O)o2)cc1 [Entry 2053]	< 500 nM
CC(=O)N1CCC(NC(=O)c2ccc3c(C4CCCCC4)c(-c4ccoc4)[nH]c3c2)(C(=O)Nc2ccc(/C=C/C(=O)O)cc2)CC1 [Entry 2055]	< 500 nM
C/C(=C\C(=O)O)c1ccc(NC(=O)C2(NC(=O)c3ccc4c(C5CCCCC5)c(-c5ccoc5)[nH]c4c3)CCCC2)cc1 [Entry 2056]	< 500 nM
O=C(O)/C=C/c1ccc(NC(=O)C2(NC(=O)c3ccc4c(C5CCCCC5)c(-c5ccoc5)[nH]c4c3)CCC2)cc1 [Entry 2057]	< 500 nM
CC(C)(NC(=O)c1ccc2c(C3CCCCC3)c(-c3ccccc3)[nH]c2c1)C(=O)Nc1ccc(/C=C/C(=O)O)cc1 [Entry 2058]	< 500 nM
CC(C)(NC(=O)c1ccc2c(C3CCCCC3)c(-c3ccsc3)[nH]c2c1)C(=O)Nc1ccc(/C=C/C(=O)O)cc1 [Entry 2059]	< 500 nM
NC(=O)/C=C/c1ccc(NC(=O)C2(NC(=O)c3ccc4c(C5CCCCC5)c(-c5ccoc5)[nH]c4c3)CCCC2)cc1 [Entry 2060]	< 500 nM
CC(C)(NC(=O)c1ccc2c(C3CCCCC3)c(-c3ccoc3)[nH]c2c1)C(=O)Nc1ccc(-c2csc(C(=O)O)n2)cc1 [Entry 2061]	< 500 nM
CC(C)(NC(=O)c1ccc2c(C3CCCCC3)c(-c3ccoc3)n(Cc3ccc(C(=O)O)cc3)c2c1)C(=O)Nc1ccc(/C=C/C(=O)O)cc1 [Entry 2063]	< 500 nM
NCC[C@H](NC(=O)c1ccc2c(C3CCCCC3)c(-c3ccoc3)[nH]c2c1)C(=O)Nc1ccc(/C=C/C(=O)O)cc1 [Entry 2064]	< 500 nM
CCN(CC)CC[C@H](NC(=O)c1ccc2c(C3CCCCC3)c(-c3ccoc3)[nH]c2c1)C(=O)Nc1ccc(/C=C/C(=O)O)cc1 [Entry 2065]	< 500 nM
CCN1CCC(NC(=O)c2ccc3c(C4CCCCC4)c(-c4ccoc4)[nH]c3c2)(C(=O)Nc2ccc(-c3csc(C(=O)O)n3)cc2)CC1 [Entry 2067]	< 500 nM
O=C(O)/C=C/c1ccc(NC(=O)C2(NC(=O)c3ccc4c(C5CCCCC5)c(-c5ccoc5)[nH]c4c3)CCOCC2)cc1 [Entry 2069]	< 500 nM
Cn1c(-c2ccccn2)c(C2CCCCC2)c2ccc(C(=O)NC(C)(C)C(=O)Nc3ccc(-c4ccc(C(=O)O)o4)cc3)cc21 [Entry 2070]	< 500 nM
Cn1c(-c2ccccn2)c(C2CCCCC2)c2ccc(C(=O)NC(C)(C)C(=O)Nc3ccc(-c4nc(C(=O)O)cs4)cc3)cc21 [Entry 2071]	< 500 nM
Cn1c(-c2ccccn2)c(C2CCCCC2)c2ccc(C(=O)NC(C)(C)C(=O)Nc3ccc(N)cc3)cc21 [Entry 2072, 3-Cyclohexyl-1-methyl-2-pyridin-2-yl-1H-indole-6-carboxylic acid[1-(4-amino-phenylcarbamoyl)-1-methyl-ethyl]-amide]	< 500 nM
Cn1c(-c2ccccn2)c(C2CCCCC2)c2ccc(C(=O)NC(C)(C)C(=O)Nc3ccc(-c4ccc(C(N)=O)o4)cc3)cc21 [Entry 2073]	< 500 nM
Cn1c(-c2ccccn2)c(C2CCCCC2)c2ccc(C(=O)NC(C)(C)C(=O)Nc3ccc(-c4nc(C(N)=O)cs4)cc3)cc21 [Entry 2074]	< 500 nM
Cn1c(C(N)=O)cc2cc(NC(=O)C(C)(C)NC(=O)c3ccc4c(C5CCCCC5)c(-c5ccccn5)n(C)c4c3)ccc21 [Entry 2075]	< 500 nM
CNC(=O)C(=O)Nc1ccc(NC(=O)C(C)(C)NC(=O)c2ccc3c(C4CCCCC4)c(-c4ccccn4)n(C)c3c2)cc1 [Entry 2076]	< 500 nM
Cn1c(-c2ccccn2)c(C2CCCCC2)c2ccc(C(=O)NC(C)(C)C(=O)Nc3ccc(NC(=O)C(N)=O)cc3)cc21 [Entry 2077]	< 500 nM
CCN1CCC(NC(=O)c2ccc3c(C4CCCCC4)c(-c4ccoc4)[nH]c3c2)(C(=O)Nc2ccc(/C=C/C(N)=O)cc2)CC1 [Entry 2078]	< 500 nM
CCN1CCC(NC(=O)c2ccc3c(C4CCCCC4)c(-c4ccoc4)[nH]c3c2)(C(=O)Nc2ccc(CCC(=O)O)cc2)CC1 [Entry 2079]	< 500 nM
CC(C)N1CCC(NC(=O)c2ccc3c(C4CCCCC4)c(-c4ccoc4)[nH]c3c2)(C(=O)Nc2ccc(/C=C/C(=O)O)cc2)CC1 [Entry 2086]	< 500 nM
CCN1CCC(NC(=O)c2ccc3c(C4CCCCC4)c(-c4ccoc4)[nH]c3c2)(C(=O)Nc2ccc(/C=C/C(=O)O)cc2)CC1 [Entry 2088]	< 500 nM

Compound	IC50
CC(C)(NC(=O)c1ccc2c(C3CCCCC3)c(-c3ccccn3)[nH]c2c1)C(=O)Nc1ccc(/C=C/C(=O)O)cc1 [Entry 2089]	< 500 nM
Cn1c(-c2ccccn2)c(C2CCCCC2)c2ccc(C(=O)NC3(C(=O)Nc4ccc(/C=C/C(=O)O)cc4)CCC3)cc21 [Entry 2090]	< 500 nM
CCN1CCC(NC(=O)c2ccc3c(C4CCCCC4)c(-c4ccccn4)n(C)c3c2)(C(=O)Nc2ccc3c(c2)cc(C(=O)O)n3C)CC1 [Entry 2092]	< 500 nM
Cn1c(C(=O)O)cc2cc(NC(=O)C(C)(C)NC(=O)c3ccc4c(C5CCCCC5)c(-c5ccccn5)n(C)c4c3)ccc21 [Entry 2093]	< 500 nM
Cn1c(-c2ccccn2)c(C2CCCCC2)c2ccc(C(=O)NC(C)(C)C(=O)Nc3ccc(NC(=O)C(=O)O)cc3)cc21 [Entry 2094]	< 500 nM
Cn1c(-c2ccccn2)c(C2CCCCC2)c2ccc(C(=O)NC(C)(C)C(=O)Nc3ccc(NC(=O)C(=O)NO)cc3)cc21 [Entry 2095]	< 500 nM
Cn1c(-c2cccc[n+]2[O-])c(C2CCCCC2)c2ccc(C(=O)NC(C)(C)C(=O)Nc3ccc(/C=C/C(=O)O)cc3)cc21 [Entry 2097]	< 500 nM
CCN1CCC(NC(=O)c2ccc3c(C4CCCCC4)c(-c4ccccn4)n(C)c3c2)(C(=O)Nc2ccc3sc(C(=O)O)c(C)c3c2)CC1 [Entry 2099]	< 500 nM
CCN1CCC(NC(=O)c2ccc3c(C4CCCCC4)c(-c4ccoc4)[nH]c3c2)(C(=O)Nc2ccc(CCC(N)=O)cc2)CC1 [Entry 2100]	1000 to 10000 nM
CCN1CCC(NC(=O)c2ccc3c(C4CCCCC4)c(-c4ccccn4)n(C)c3c2)(C(=O)Nc2ccc(-c3ccc(C(=O)O)nc3)cc2)CC1 [Entry 2101]	< 500 nM
Cn1c(-c2cccc([N+](=O)[O-])c2)c(C2CCCCC2)c2ccc(C(=O)NC(C)(C)C(=O)Nc3ccc(/C=C/C(=O)O)cc3)cc21 [Entry 2102]	< 500 nM
Cn1c(-c2cncc(C(N)=O)c2)c(C2CCCCC2)c2ccc(C(=O)NC(C)(C)C(=O)Nc3ccc(/C=C/C(=O)O)cc3)cc21 [Entry 2103]	< 500 nM
CC(=O)Nc1ccc(-c2c(C3CCCCC3)c3ccc(C(=O)NC(C)(C)C(=O)Nc4ccc(/C=C/C(=O)O)cc4)cc3n2C)cc1C [Entry 2104]	< 500 nM
CC(=O)N1CCCC(NC(=O)c2ccc3c(C4CCCCC4)c(-c4ccccn4)n(C)c3c2)(C(=O)Nc2ccc(/C=C/C(=O)O)cc2)C1 (centres unmarked) [Entry 2105]	< 500 nM
CC(=O)N1CCC(NC(=O)c2ccc3c(C4CCCCC4)c(-c4ccccn4)n(C)c3c2)(C(=O)Nc2ccc(C=CC(=O)O)cc2)C1 (centres unmarked) [Entry 2106]	< 500 nM
Cn1c(-c2ccccn2)c(C2CCCCC2)c2ccc(C(=O)NC3(C(=O)Nc4ccc5[nH]c(C(=O)O)c(I)c5c4)CCCNC3)cc21 (centres unmarked) [Entry 2110]	< 500 nM
Cc1c(C(=O)O)sc2ccc(NC(=O)C3(NC(=O)c4ccc5c(C6CCCCC6)c(-c6ccccn6)n(C)c5c4)CCC3)cc12 [Entry 2111]	< 500 nM
Cc1c(C(N)=O)sc2ccc(NC(=O)C3(NC(=O)c4ccc5c(C6CCCCC6)c(-c6ccccn6)n(C)c5c4)CCC3)cc12 [Entry 2112]	< 500 nM
Cn1c(-c2ccccn2)c(C2CCCCC2)c2ccc(C(=O)NC3(C(=O)Nc4ccc(-c5cnc(N)nc5)cc4)CCC3)cc21 [Entry 2113]	500 to 1000 nM
CN1CCCC(NC(=O)c2ccc3c(C4CCCCC4)c(-c4ccccn4)n(C)c3c2)(C(=O)Nc2ccc(/C=C/C(=O)O)cc2)C1 (centres unmarked) [Entry 2114]	< 500 nM
CN1CC[C@@](NC(=O)c2ccc3c(C4CCCCC4)c(-c4ccccn4)n(C)c3c2)(C(=O)Nc2ccc(/C=C/C(=O)O)cc2)C1 [Entry 2116]	< 500 nM
CN1CC[C@](NC(=O)c2ccc3c(C4CCCCC4)c(-c4ccccn4)n(C)c3c2)(C(=O)Nc2ccc(/C=C/C(=O)O)cc2)C1 [Entry 2118]	< 500 nM
Cn1c(-c2ccoc2)c(C2CCCC2)c2ccc(C(=O)NC3(C(=O)Nc4ccc(/C=C/C(=O)O)cc4)CC3)cc21 [Entry 3004]	< 500 nM
Cn1c(-c2ccccc2)c(C2CCCCC2)c2ccc(C(=O)NC3(C(=O)Nc4ccc(/C=C/C(=O)O)cc4)CCCC3)cc21 [Entry 4001]	500 to 1000 nM
O=C(O)/C=C/c1ccc(NC(=O)C2(NC(=O)c3ccc4c(C5CCCCC5)c(-c5ccccc5)[nH]c4c3)CCCC2)cc1 [Entry 4002]	500 to 1000 nM
O=C(O)/C=C/c1ccc(N2CC[C@H](NC(=O)c3ccc4c(C5CCCCC5)c(-c5ccoc5)[nH]c4c3)C2=O)cc1 [Entry 5001]	1000 to 10000 nM

same assay, conditions: IC50, Table 6

Compound	IC50
CC(=O)N1CCC(NC(=O)c2ccc3c(C4CCCC4)c(-c4ccccn4)n(C)c3c2)(C(=O)Nc2ccc(/C=C/C(=O)O)cc2)CC1 [Entry 6001]	< 500 nM
CC(=O)N1CCCC(NC(=O)c2ccc3c(C4CCCC4)c(-c4ccccn4)n(C)c3c2)(C(=O)Nc2ccc(/C=C/C(=O)O)cc2)C1 (centres unmarked) [Entry 6002]	< 500 nM
Cn1c(-c2csc(-c3cccnc3)n2)c(C2CCCC2)c2ccc(C(=O)NC(C)(C)C(=O)Nc3ccc(/C=C/C(=O)O)cc3)cc21 [Entry 6003]	< 500 nM
Cn1c(-c2csc(Nc3ccccc3)n2)c(C2CCCC2)c2ccc(C(=O)NC(C)(C)C(=O)Nc3ccc(/C=C/C(=O)O)cc3)cc21 [Entry 6004]	500 to 1000 nM
CC(=O)Nc1ccc(-c2c(C3CCCC3)c3ccc(C(=O)NC(C)(C)C(=O)Nc4ccc(/C=C/C(=O)O)cc4)cc3n2C)cc1C [Entry 6005]	< 500 nM
CC(=O)Nc1ccc(-c2c(C3CCCC3)c3ccc(C(=O)NC4(C(=O)Nc5ccc(/C=C/C(=O)O)cc5)CCC4)cc3n2C)cc1C [Entry 6006]	< 500 nM
Cn1c(-c2csc(NC(=O)CC(C)(C)C)n2)c(C2CCCC2)c2ccc(C(=O)NC(C)(C)C(=O)Nc3ccc(/C=C/C(=O)O)cc3)cc21 [Entry 6007]	< 500 nM
